From PubChem BioAssay
The full list was thinned out, with hits kept by preference.
GIV Gai3 FP: inhibitors of GIV peptide binding to Galpha-i3, primary screen, biochemical, fluorescence polarization, FITC-GIV GBA peptide, rat Galphai3 | 90 min; hits give low values; scaled: aluminum fluoride 0%, vehicle 100% | percent of control (FP), % (concentration not given with the values) | 210,000 compounds, 0.42% hits | AID 1224905, 2016;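 active = replicate mean at 85% of control or lower, very high polarization wells dropped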;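 also: wells of about 15 µL received 100 nL stock; the first replicate is given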
GIV-Gai FP conf: inhibitors of GIV peptide binding to Galpha-i3, confirmation, biochemical, fluorescence polarization, FITC-GIV peptide, rat Galphai3; hits give low values; fluorescence polarization, mP at 100 µM; shares compounds with GIV Gai3 FP; actives 38% (n = 580);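 active means inhibition score of 15 or more, meaning 100 minus mean polarization as percent of control over three replicates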;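 further: lower mP means peptide displaced from Galphai3 so more inhibition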
GIV Gai AS conf: inhibitors of GIV binding to Galpha-i3, confirmation, orthogonal assay for GIV-Galpha-i inhibitor project, biochemical, AlphaScreen, His-GIV, GST-Galphai3. shares compounds with GIV Gai3 FP. purified proteins, 90 min; hits give low values. AlphaScreen counts at 100 µM. actives 39% (n = 580);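 active means inhibition score at or above a set limit, where the score is 100 minus the three-replicate mean percent of control signal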
Starred values were filed as active, the others as inactive.

SMILES | GIV Gai3 FP | others
Cc1ccc(NC(=O)/C(C#N)=C\c2ccc(-c3ccc(Cl)cc3)o2)c(C)c1 | 106.2
N#C/C(=C\c1ccc(-c2cccc(Cl)c2)o1)C(N)=O | 90.8
CC(C)(C)C1=CC2(C=C(C(C)(C)C)C1=O)Nc1ccc([N+](=O)[O-])cc1OC2c1ccccc1 (stereo not given) | 113.1
CCn1c(SC)nnc1C1CCCN1C(=O)N(c1ccccc1)c1ccccc1 (stereo not given) | 104.7
CN(C)S(=O)(=O)N1CCC(Oc2cc(N3CCOCC3)ncn2)C1 (stereo not given) | 102.1
Cc1cc(-n2ccnc(NCc3ccc4c(c3)OCO4)c2=O)ccc1Br | 97.6
Cn1cnnc1SCC(=O)O | 100.7
CC1CCN(C(=O)C2CCCN(c3ncc(-c4cccc(F)c4)cn3)C2)CC1 (stereo not given) | 101.5
COC(=O)c1cc(C(=O)Nc2ccc(Cl)cc2)c(=O)[nH]c1C | 105.6 | GIV-Gai FP conf=80.6;GIV Gai AS conf=29055
COC(=O)c1cc(C(=O)Nc2ccc(OC)c(Cl)c2)c(=O)[nH]c1C | 109.4
COC(=O)c1cc(C(=O)Nc2ccc(C)cc2)c(=O)[nH]c1C | 104.8
CC(C)NC(=O)CCc1nc(CS(=O)(=O)c2ccccc2)no1 | 107.4
CCOC1(c2ccccc2)OC(=O)c2ccccc21 (stereo not given) | 101.9
CCN(c1ccccc1)C1(O)C(=O)c2ccccc2C1=O | 96.4
O=C1c2ccccc2C2=Nc3ccccc3OC12O (stereo not given) | 101.7
CCOC1(O)C(=O)c2ccccc2C(=O)C1(O)OCC (stereo not given) | 72.0* | GIV-Gai FP conf=64.6;GIV Gai AS conf=46438
O=C1c2ccccc2C(=O)C2(O)OCCOC12O (stereo not given) | 50.9* | GIV-Gai FP conf=61.8*;GIV Gai AS conf=34751
O=C1Nc2ccccc2C(=O)C1(O)O | 102.9
CCCS(=O)(=O)c1nc2ccc(NS(=O)(=O)c3ccc(OC)c(OC)c3)cc2s1 | 102.2
O=C(c1ccc2c(c1)OCO2)N1CCN(c2ccc(-c3noc(C4CCC4)n3)cc2)CC1 | 103.1
c1ccc(C2=Nn3cnnc3SC2)cc1 | 112.8
COc1ccc(N2C(=O)NC(=O)/C(=C\c3ccc(OCC(=O)O)c(Br)c3)C2=O)cc1 | 95.6
COc1ccc(N2C(=O)/C(=C/c3ccc(OCC(=O)O)c(OC)c3)C(=O)NC2=S)cc1 | 102.5
COc1ccc(N2C(=O)/C(=C/c3ccc(OCC(=O)O)c(Br)c3)C(=O)NC2=S)cc1 | 78.5* | GIV-Gai FP conf=44.6*;GIV Gai AS conf=20466*
CCN(CC)S(=O)(=O)c1ccc(C(=O)Nc2c3c(nn2-c2cccc(C)c2C)CSC3)cc1 | 106.7
Cc1ccc(-n2nc(C)c3c(C)c(CCC(=O)NC(C)c4ccccc4)c(C)nc32)cc1C (stereo not given) | 98.8
Cc1ccc2ccc3cc(C(=O)Nc4ccc(F)c(Cl)c4)nc3c2[nH]1 | 102.9
CC1CC(=O)c2cnc(N3CCN(c4ccc(F)cc4)CC3)nc2C1 (stereo not given) | 100.1
O=C1CCCc2nc(N3CCN(c4ccccc4F)CC3)ncc21 | 82.3* | GIV-Gai FP conf=68.1;GIV Gai AS conf=44943
Fc1ccc(CN2CCc3nc(N4CCN(c5ccccc5F)CC4)ncc3C2)c(F)c1 | 104.5
O=C(NC1CCCCC1)N1CCCC1c1ccccc1F (stereo not given) | 102.2
CCC12CN3CC(C)(CN(C1)C3c1cc(Br)ccc1O)C2=O (stereo not given) | 102.8
Cc1cc(N2CCOCC2)nc(N2CCN(C(=O)C3CCCCC3)CC2)n1 | 103.0
O=c1c2sccc2n2c(SCc3ccccc3F)nnc2n1Cc1ccccc1 | 100.9
CCN1CCCc2cc(O)ccc21 | -9.7* | GIV-Gai FP conf=8.3*;GIV Gai AS conf=5580*
CCCN1CCCc2cc(CN(CCOC)C(=S)Nc3ccccc3OC)ccc21 | 113.9
CCCN1CCCc2cc(CN)ccc21 | 64.7* | GIV-Gai FP conf=51.3*;GIV Gai AS conf=9116*
COc1ccc(C(=O)CN2CCCc3cc(C)ccc32)cc1 | 123.6
CCCN1CCCc2cc(CN(CCCN3CCOCC3)C(=O)Nc3ccccc3)ccc21 | 103.5
Cc1ccc2c(c1)CCCN2C(=O)CC(=O)N1CCCc2cc(C)ccc21 | 103.8
COc1cccc(C(=O)N(Cc2cccnc2)c2nc3ccc(Cl)cc3s2)c1OC | 105.8
CCCNC(=O)c1nnc(-c2oc3ccccc3c2C)o1 | 104.9
CSc1ccc(C2OC(=O)C(=Cc3ccc(C)o3)C(=O)O2)cc1 (stereo not given) | 100.4
COc1ccc(C(=O)N2N=C3c4ccccc4S(=O)(=O)N3C2N(C)C)cc1 (stereo not given) | 107.8
CC(C)(C)N=Cc1cc(-c2ccccc2)sc1S | 111.2

Compounds from the list above with two or more sulfur atoms:
SMILES | GIV Gai3 FP | others
CCCS(=O)(=O)c1nc2ccc(NS(=O)(=O)c3ccc(OC)c(OC)c3)cc2s1 | 102.2
CCN(CC)S(=O)(=O)c1ccc(C(=O)Nc2c3c(nn2-c2cccc(C)c2C)CSC3)cc1 | 106.7
O=c1c2sccc2n2c(SCc3ccccc3F)nnc2n1Cc1ccccc1 | 100.9
CC(C)(C)N=Cc1cc(-c2ccccc2)sc1S | 111.2
